Data published in US11155523B2, “Biphenyl compound as CCR2/CCR5 receptor antagonist” (Medshine Discovery Inc., priority 2016, dated 2021).

By UniProt entry, the sequences of proteins in these tests, tags left out.
UniProt P41597, whole entry: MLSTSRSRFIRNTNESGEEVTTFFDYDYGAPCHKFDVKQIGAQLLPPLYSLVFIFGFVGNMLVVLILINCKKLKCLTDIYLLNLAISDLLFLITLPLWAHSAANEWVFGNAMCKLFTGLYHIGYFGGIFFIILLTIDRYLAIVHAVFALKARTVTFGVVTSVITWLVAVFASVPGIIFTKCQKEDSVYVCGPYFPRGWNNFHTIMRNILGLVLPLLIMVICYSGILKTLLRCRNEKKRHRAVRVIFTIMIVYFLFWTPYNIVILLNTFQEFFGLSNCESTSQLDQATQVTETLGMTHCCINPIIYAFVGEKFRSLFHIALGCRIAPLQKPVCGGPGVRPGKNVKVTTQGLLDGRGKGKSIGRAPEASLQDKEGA
UniProt P51681, whole entry: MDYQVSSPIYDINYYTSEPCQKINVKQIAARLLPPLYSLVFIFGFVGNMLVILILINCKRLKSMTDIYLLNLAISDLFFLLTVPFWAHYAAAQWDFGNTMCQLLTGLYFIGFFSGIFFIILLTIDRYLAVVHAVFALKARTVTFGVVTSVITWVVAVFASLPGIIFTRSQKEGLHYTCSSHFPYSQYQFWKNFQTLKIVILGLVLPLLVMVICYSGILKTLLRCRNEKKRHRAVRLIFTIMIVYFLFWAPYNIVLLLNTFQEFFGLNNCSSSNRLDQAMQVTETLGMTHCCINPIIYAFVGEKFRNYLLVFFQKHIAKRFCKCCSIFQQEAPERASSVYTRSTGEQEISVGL

Columns and labels:
CCR2 = CCR2 (Homo sapiens, UniProt P41597); test: CCR2 in vitro test: intracellular calcium signal detected by FLIPR; conditions: read-out: IC50 detected by FLIPR, CCR2; HEK293 cells expressing CCR2, agonist MCP-1 at EC80, calcium signal
Procedure: (§1) Experimental Example 1: CCR2/CCR5 In Vitro Test
(§2) The intracellular calcium signal was detected by FLIPR, and the IC50 value of the compound was used as an index to evaluate the inhibitory effect of the compound on CCR2 and CCR5 receptors.
(§3) 1. Cell line: The cells were inoculated and incubated in a 5% CO2 incubator at 37° C. overnight.
(§4) CCR2/CCR5 density: 1 M (20 k/well)
(§5) 2. Reagents: Fluo-4 Direct, (Invitrogen, Cat #F10471)
(§6) The compound was dissolved in DMSO to prepare a 10 mM solution, and the compound solution was placed in a nitrogen box.
(§7) Agonist reference compounds:
(§8) Preparation of probenecid in FLIPR assay buffer: 1 mL of FLIPR assay buffer was added to […] of probenecid to prepare a 250 mM solution, which is prepared fresh daily. […]
(§9) (f) For DRC plate: • 1) Run the program on FLIPRTETRA. • 2) Read the fluorescent signal. • 3) Transfer 10 μL of compound from the DRC plate to the cell plate. • 4) Read the fluorescent signal. • 5) Calculate the “maximum−minimum” from Read 90 to the maximum allowed. […]
(§10) (g) For the composite plate (1-add): • 1) Run the program on FLIPRTETRA. • 2) Transfer 10 μl, of 5×EC80 concentration of the agonist reference compound from the composite plate to the cell plate. • 3) Read the fluorescent signal. • 4) Calculate the “maximum−minimum” from Read 90 to the maximum allowed. […]

CCR5 = CCR5 (Homo sapiens, UniProt P51681); test: CCR5 in vitro test: intracellular calcium signal detected by FLIPR; conditions: read-out: IC50 detected by FLIPR, CCR5; HEK293 cells expressing CCR5, agonist RANTES at EC80, calcium signal
Procedure: as §1, §2, §3, §4, §5, §6, §7, §8, §9, §10

- IC50 (CCR2): 25.4 nM
- IC50 (CCR5): 1.3 nM
SMILES: CCCCOCCOc1ccc(-c2ccc(S(=O)(=O)C(C)C)c(/C=C/C(=O)Nc3ccc([S@@+]([O-])Cc4cncn4CCC)cc3)c2)cc1
